The target in this experiment is D2L receptor (Rattus norvegicus, UniProt P61169). Put plainly: biochemical.

By UniProt entry, the sequences of proteins in these tests, tags left out. Where a name states a change or a piece, a line headed by the entry shows the natural chain unless it says otherwise.
UniProt P61169, whole entry: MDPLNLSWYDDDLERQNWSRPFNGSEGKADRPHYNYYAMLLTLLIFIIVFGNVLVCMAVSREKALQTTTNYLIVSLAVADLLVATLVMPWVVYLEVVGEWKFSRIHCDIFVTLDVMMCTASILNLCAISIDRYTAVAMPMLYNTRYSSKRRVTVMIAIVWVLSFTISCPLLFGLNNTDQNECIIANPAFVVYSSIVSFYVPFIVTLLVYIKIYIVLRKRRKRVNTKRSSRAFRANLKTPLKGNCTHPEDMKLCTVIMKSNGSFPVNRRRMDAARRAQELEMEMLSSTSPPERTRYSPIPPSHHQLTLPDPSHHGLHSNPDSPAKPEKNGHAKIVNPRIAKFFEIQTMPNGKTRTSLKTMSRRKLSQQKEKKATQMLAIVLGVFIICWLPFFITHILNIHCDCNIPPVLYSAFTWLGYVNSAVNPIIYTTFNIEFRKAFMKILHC

Experimental findings from US20070155720A1 (published 2007) are described below.

The term Ki denotes the dissociation constant of the complex between target and ligand, obtained from inhibition or displacement. Read a high Ki as weaker binding.

In turn, `Oc1ccc2c(c1O)Cc1cccc3c1C2CNC3` (stereo not shown) [Compound 29, 8,9-Dihydroxy-2,3,7,11b-tetrahydro-1H-napth[1,2,3-de]isoquinoline] came in with a Ki of 59 nM.
